Laboratory results: ChEMBL document CHEMBL1152513, “Synthesis and characterizations of novel quinoline derivatives having mixed ligand activities at the kappa and mu receptors: Potential therapeutic efficacy against morphine dependence” (Bioorg Med Chem, 2009)

The chains behind the UniProt entries cited, without tags or fusion partners.
UniProt P33535, whole entry: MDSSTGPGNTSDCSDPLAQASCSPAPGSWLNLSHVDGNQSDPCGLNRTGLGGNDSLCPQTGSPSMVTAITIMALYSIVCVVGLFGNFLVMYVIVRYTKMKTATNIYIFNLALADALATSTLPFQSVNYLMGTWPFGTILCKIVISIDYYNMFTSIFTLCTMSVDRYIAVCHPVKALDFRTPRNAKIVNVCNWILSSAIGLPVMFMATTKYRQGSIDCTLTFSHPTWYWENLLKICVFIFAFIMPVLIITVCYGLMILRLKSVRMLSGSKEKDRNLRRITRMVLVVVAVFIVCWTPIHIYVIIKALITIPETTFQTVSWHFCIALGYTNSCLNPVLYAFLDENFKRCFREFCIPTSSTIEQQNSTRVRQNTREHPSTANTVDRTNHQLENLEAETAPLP

Molecular target: Mu-type opioid receptor (Rattus norvegicus, UniProt P33535)
Assay: Displacement of [3H]DAMGO from mu opioid receptor in rat brain
Format: tissue-based

Q: For `C[C@@H](NC(=O)[C@@H](N)Cc1ccc(O)cc1)C(=O)NCC(=O)N(C)[C@@H](Cc1ccccc1)C(=O)NCCO` [DAMGO], which IC50 is on record?
A: The IC50 was 1.01 nM.
